# Antibody variant affinities, Ab-14 heavy chain, assay B

Target peptide (SARS-CoV-2 spike, HR2 region): PDVDLGDISGINAS

Parent scFv Ab-14: VH joined to VL by the linker GGGGSGGGGSGGGGS. Changes lie in the heavy chain CDRs alone.
VH: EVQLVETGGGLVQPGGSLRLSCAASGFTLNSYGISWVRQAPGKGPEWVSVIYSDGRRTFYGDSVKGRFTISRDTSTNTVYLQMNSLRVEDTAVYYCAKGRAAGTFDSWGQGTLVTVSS
VL: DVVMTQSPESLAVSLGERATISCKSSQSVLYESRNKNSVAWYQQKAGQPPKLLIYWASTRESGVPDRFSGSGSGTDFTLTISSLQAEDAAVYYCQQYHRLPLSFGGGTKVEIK

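This is the validation round: designs drawn from the data on random variants, tested in the same kind of assay. Their group label is 14H_GPLM_Gen (GPLM: also part of the Gaussian process libraries; Gen: genetic algorithm; a sequence that several methods proposed may carry one label only). In AlphaSeq, yeast of one mating type display the scFv and yeast of the other type display the target. Pairs that bind mate more often; barcode pairs of the diploids are counted by sequencing. Scores were corrected for input abundance and mapped to Kd with protein pairs of known affinity run in the same pool. Each pool was mated in six replicate cultures.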

Positions count from residue 1 of the parent VH; G61A puts A in place of G.
Scale: log10 of Kd in nM, estimated from mating counts; low values are strong binders.
Averages over replicates are reported, and they cover detected replicates only.
"ND" marks a missing value. The strain was present, yet no cells mated with the target were sequenced in that replicate, which points to weak or no binding.

changes,"replicates, log10 nM","mean, log10 nM",signal with controls
G61A+R100W+A101V,0.83 / 0.63 / 0.78 / 0.27 / 0.92 / 0.99,0.74,0/18
T28S+G61A+R100Q+S107R,0.33 / -0.31 / 0.19 / 0.63 / 0.10 / 0.10,0.17,0/18
T28S+S31E+R100K+S107E,0.60 / 0.82 / 0.87 / 0.54 / 0.52 / 0.76,0.68,1/18 (1.88)
T28N+G61A+R100N,0.74 / 0.16 / 1.05 / 0.38 / 1.18 / ND,0.70,0/18
S31E+A101Y,0.92 / 1.16 / 0.79 / 0.25 / 0.95 / 0.98,0.84,0/18
T28S+S31E+S53A+R100K,0.17 / -0.24 / -0.17 / -0.48 / 0.05 / 0.04,-0.10,0/18
T28S+F59M+G61I+R100Q,ND / ND / ND / 1.22 / 0.54 / 1.61,1.12,0/18
T28Y+R100Q+A101T,0.84 / 2.15 / 1.37 / 0.65 / 1.25 / 1.59,1.31,1/18 (2.67)
T28S+S31N+S63D+A101T,0.57 / 0.03 / 0.12 / 0.35 / 0.30 / 0.23,0.26,1/18 (1.74)
F27M+T28S+A101T,ND / 0.69 / 1.07 / -0.27 / 0.39 / 0.73,0.52,0/18
S53A+R100K+S107L,0.14 / 0.07 / -0.18 / -0.22 / -0.03 / 0.08,-0.02,0/18
T28H+S31E+R100Q+A101T,1.23 / 0.60 / 1.24 / 0.73 / 3.26 / 1.57,1.44,0/18
R56K+G61S+R100E,1.20 / 0.30 / 0.73 / 0.64 / 1.21 / 0.76,0.81,0/18
S31E+A101L+S107L,0.68 / 0.81 / 0.46 / 0.70 / 0.17 / 1.50,0.72,0/18
T28S+R100A+A101T,0.12 / 0.36 / 0.00 / 0.21 / -0.11 / 0.18,0.13,0/18
T28G+G61S+A101T,0.58 / 0.47 / 0.28 / 0.37 / 0.11 / 0.51,0.39,1/18 (2.35)
T28D+R56Y+A101T,0.59 / 0.37 / 0.30 / 0.02 / 0.26 / 0.39,0.32,0/18
T28S+F59A+A101T,0.53 / 0.07 / 0.27 / 0.24 / 0.06 / 0.22,0.23,0/18
T28S+G61S+R100V,0.68 / 0.65 / 0.28 / 0.78 / 1.29 / 0.91,0.77,0/18
T28V+G61A+R100N,1.01 / 1.10 / 1.22 / 2.02 / 1.97 / 1.48,1.47,0/18
T28S+S31L+A101T,0.28 / ND / 1.51 / 3.44 / 1.88 / 1.02,1.63,0/18
T28S+G61A+S63N+R100N,ND / -0.15 / 0.27 / 0.91 / 0.15 / 0.48,0.33,0/18
T28N+G61A+A101E,0.09 / 0.41 / 0.03 / 0.23 / -0.10 / 0.14,0.13,0/18
G61S+R100Q+S107T,0.40 / 0.60 / 0.64 / 0.26 / 0.75 / 0.56,0.53,1/18 (1.52)
N30D+R56K+G61A,1.10 / 0.96 / 0.99 / ND / 1.47 / 1.15,1.13,0/18
T28S+G61I+A101Q,2.54 / 1.40 / 0.98 / ND / 2.56 / 1.44,1.78,0/18
G61I+R100E,0.75 / 0.13 / 0.36 / 0.69 / 1.05 / 0.32,0.55,0/18
R56K+G61S+R100Q+S107F,-0.31 / 0.23 / 1.24 / -0.40 / -0.50 / -0.21,0.01,0/18
T28D+G61A+R100Q+S107A,1.37 / 0.34 / 0.58 / 0.53 / 1.18 / 0.28,0.71,1/18 (0.44)
T28V+S31E+A101N,1.42 / 0.17 / 0.81 / ND / 0.32 / 0.61,0.67,0/18
T28D+G61A+A101T,-0.18 / 0.34 / 0.64 / 0.19 / 0.01 / 0.13,0.19,1/18 (3.36)
S31D+G61A+A101M,0.12 / 0.03 / 0.29 / 0.09 / 0.94 / 0.12,0.26,0/18
T28D+G61A+S63R+R100Q,0.78 / 0.52 / 0.56 / 0.17 / 0.37 / 0.39,0.47,0/18
T28S+S63Q+R100Q+A101T,ND / 0.36 / 1.02 / 0.13 / ND / 0.88,0.60,0/18
S31E+S107L,1.45 / 3.96 / 0.63 / 1.89 / 1.00 / 1.40,1.72,0/18
S53A+R100E+D106K,0.08 / -0.10 / -0.16 / -0.30 / 0.06 / -0.01,-0.07,0/18
T28S+S31E+R56K+G61A,-0.03 / -0.03 / 0.13 / 0.08 / -0.37 / -0.12,-0.06,1/18 (2.07)
S53A+R100V,1.03 / 0.67 / 0.29 / 0.98 / 0.90 / 1.06,0.82,0/18
G26K+T28N+A101T,0.41 / ND / ND / ND / 2.31 / ND,1.36,0/18
T28D+G61T+R100Q+A101T,0.58 / 0.17 / 0.27 / 0.38 / 0.00 / 1.06,0.41,0/18
T28S+R100N+A101T,0.51 / -0.21 / -0.19 / -0.38 / -0.24 / 0.05,-0.08,0/18
T28V+S31E+A101H,1.47 / ND / 1.51 / 1.28 / 2.65 / 2.82,1.94,0/18
T28S+G61V+S63D+R100E,1.57 / 1.48 / 1.19 / 0.41 / 0.96 / 1.10,1.12,0/18
S31D+G61A+D106T,1.30 / 2.05 / 0.72 / 1.40 / 3.26 / 0.87,1.60,0/18
T28D+S31E+G61A,ND / ND / ND / ND / ND / ND,ND,0/18
T28D+G61A+R100H,1.24 / 0.62 / 0.46 / 0.89 / 0.30 / 1.09,0.76,0/18
T28S+S31E+S107A,0.38 / 0.12 / 0.08 / -0.30 / -0.13 / -0.12,0.00,0/18

Repeated from above, the 6 best binders with a signal in all replicates:

{"changes": "T28S+S31E+S53A+R100K", "replicates, log10 nM": "0.17 / -0.24 / -0.17 / -0.48 / 0.05 / 0.04", "mean, log10 nM": "-0.10", "signal with controls": "0/18"}
{"changes": "T28S+R100N+A101T", "replicates, log10 nM": "0.51 / -0.21 / -0.19 / -0.38 / -0.24 / 0.05", "mean, log10 nM": "-0.08", "signal with controls": "0/18"}
{"changes": "S53A+R100E+D106K", "replicates, log10 nM": "0.08 / -0.10 / -0.16 / -0.30 / 0.06 / -0.01", "mean, log10 nM": "-0.07", "signal with controls": "0/18"}
{"changes": "T28S+S31E+R56K+G61A", "replicates, log10 nM": "-0.03 / -0.03 / 0.13 / 0.08 / -0.37 / -0.12", "mean, log10 nM": "-0.06", "signal with controls": "1/18 (2.07)"}
{"changes": "S53A+R100K+S107L", "replicates, log10 nM": "0.14 / 0.07 / -0.18 / -0.22 / -0.03 / 0.08", "mean, log10 nM": "-0.02", "signal with controls": "0/18"}
{"changes": "T28S+S31E+S107A", "replicates, log10 nM": "0.38 / 0.12 / 0.08 / -0.30 / -0.13 / -0.12", "mean, log10 nM": "0.00", "signal with controls": "0/18"}

Of ten entries with the parent sequence, four were seen in most replicates (averages 0.34 to 2.37), three in one and three in none, so single entries are noisy.
In the paper, a design with two or fewer of six values counts as a poor binder.
Nonspecific signal, from three strains lacking the peptide, appeared in 1% of pairings of all heavy chain designs, centred on 2.08 (5% of these signals below 0.84); values are not corrected for it. Also given: how often the same scFv was detected with the empty control strains, with their mean in brackets.
A sequence measured in both rounds can read differently, since the two assays cover different ranges.

The measurements come from Li et al. 2023 (doi:10.1038/s41467-023-39022-2) through the FLAb antibody collection.